High-throughput results deposited in PubChem by National Center for Advancing Translational Sciences (NCATS).
ClpP mod: qHTS Assay for Activators of ClpP; purified B. subtilis ClpP, FRET peptide cleavage, 20 min; Potency, µM (titrated, usually from 57.5 µM); hit rate 1.9% among 340,000; AID 651965, 2013; active = well fitted falling curve with a large enough effect; inconclusive = small, poorly fitted or top-dose-only effect; inactive = no such curve, though single readings can be large or run the other way; note: the source files actives as falling curves though it sought activators and does not explain the sign; nearly all actives have a fitted effect of over 65% in size
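FRET quenching reversal measured ClpP activation: 10 microg/mL B. subtilis ClpP at pH 8 with the FRET-FV decapeptide, read at 430 nm after 320 nm excitation. The 20-min minus 0-min signal was scaled between DMSO/no-enzyme wells and ADEP (5.8 microM final).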
A549 viability: counter-screen for Nrf2 inhibitors: cytotoxicity in A549 cells; A549 ARE-Fluc cells, CellTiter-Fluor viability, 18-24 h; Potency, µM (series often up to 46 µM), hits mostly inhibitors; hit rate 0.16% among 390,000
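A549 ARE_Fluc cells in 5% FBS OPTI-MEM were exposed to compounds in concentration-response for 18-24 h at 37 deg C. Viability was read by CellTiter-Fluor fluorescence (Ex 405/Em 525) after 30 min, before the luciferase read.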
Nrf2 ARE act: activates Nrf2 signaling; AREc32 ARE-luciferase reporter (MCF7-derived line), luminescence, 24 h; Potency, µM (highest dose often 46.1 µM), usual class: activators; hit rate 0.31% among 410,000; AID 624171; note: nearly all actives have a fitted effect of over 65% in size
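AREc32 cells carrying an ARE-driven firefly luciferase reporter were seeded at 1000 cells/well in OPTI-MEM with 5% FBS, then exposed to compound for 24 hr at 37 deg C. Luminescence was read with Steady-Glo after 30 min at RT.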
Nrf2 block: Nrf2 pathway inhibition | Potency, µM (doses to about 46 µM), actives largely listed as inhibitors | A549 ARE-Fluc reporter, luciferase luminescence, 18-24 h | AID 504444 | hit rate 2.1% among 360,000; note: nearly all actives have a fitted effect of over 60% in size
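Nrf2 activity is the BugLite luminescence, read 15 min after reagent at room temperature, following CellTiter-Fluor cytotoxicity readout (30 min, 37C). Compound titrations were applied for 18-24 h to 5000 A549 ARE_Fluc cells/well in 5% FBS OPTI-MEM.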
miR-21 reporter: miR-21 reporter, rising signal. 340,000 tested, under 10 active. Potency, µM (highest dose often 38.3 µM). HeLa miR-21 FLuc reporter, luciferase, 48 h. AID 2288; active = well fitted rising curve with a large enough effect; inconclusive = small, poorly fitted or top-dose-only effect; inactive = no such curve, though single readings can be large or run the other way;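 further: miR-21 action dims this reporter so a rising signal means less miR-21 action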
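HeLa cells stably expressing CMV-driven firefly luciferase with a downstream miR-21 binding sequence, endogenously expressing miR-21, were treated with titrations (up to about 40uM final) for 48 hours at 37 degree Celsius. Luciferase luminescence was read after lysis.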
p53 reactivator: restores transcriptional activity of mutant p53. H1299 p53-A138V BP100-luciferase reporter, luminescence, 24 h. hit rate 0.063% among 320,000. Potency, µM (series often up to 92.2 µM), most hits filed as activators; note: nearly all actives have a fitted effect of over 45% in size
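p53-null H1299 cells stably carrying temperature-sensitive p53-A138V and a BP100-luciferase reporter were pinned with compounds (4-point, 1:5 series) and held 24 hrs at 37 deg C. Luminescence was read 10 min after detection reagent.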
Numbers stand for hits; i = inactive; ? = inconclusive; nt = no result. The list is not random: actives were taken first. Their share in the collection is about 3.7%. Unless noted, calls come from the whole dose curve; as a rule, active = well fitted curve in the direction sought with a large enough effect; inconclusive = small, poorly fitted or top-dose-only effect, or another doubt; inactive = no such curve, though single readings can be large; an effect the other way counts as inactive or inconclusive.

SMILES | ClpP mod | A549 viability | Nrf2 ARE act | Nrf2 block | miR-21 reporter | p53 reactivator
Cc1ccc2nc(SCC(=O)N3CCCC3)nc(=O)n2c1 | 25.1µM | i | i | i | nt | i
Cc1cc(=O)oc2cc(OC(C)C(=O)N3CCOCC3)ccc12 (stereo not given) | 14.1µM | i | i | i | i | i
Cc1cc(=O)oc2cc(OC(C)C(=O)Nc3ccc(N4CCCCC4)cc3)ccc12 (stereo not given) | i | i | i | i | i | i
COC(=O)C(CC(C)C)Oc1ccc2c(C)cc(=O)oc2c1 (stereo not given) | 15.8µM | i | i | i | i | i
Cc1cc(=O)oc2cc(OCc3ccc(S(=O)(=O)N4CCOCC4)cc3)ccc12 | 3.16µM | i | i | ? | i | i
Cc1cc(=O)oc2cc(OCC(=O)N3CCOCC3)ccc12 | 15.8µM | i | i | i | i | i
COc1cc(-c2ccc3ncnc(NCc4nc(C)cs4)c3c2)cc(OC)c1OC | nt | i | nt | ? | nt | nt
CCc1nc2cccnc2n1-c1ccc(CC(=O)Nc2ccc(C)cc2)cc1 | i | i | i | i | i | nt
Cc1nn(S(=O)(=O)c2ccc(C(C)(C)C)cc2)c(C)c1S(=O)(=O)N1CCCCCC1 | i | i | i | nt | i | nt
COc1cc(CN2CCC(C(=O)NC(c3ccc(-c4ccccc4)cc3)c3cnccn3)CC2)cc(OC)c1 (stereo not given) | i | nt | i | nt | nt | nt
Cc1cc(=O)oc2cc(OCc3ccc(C(=O)N4CCN(c5ccccc5)CC4)cc3)ccc12 | i | i | i | 18.4µM | i | i
Cc1cc(=O)oc2cc(OCc3ccc(C(=O)N4CCN(c5ccc([N+](=O)[O-])cc5)CC4)cc3)ccc12 | i | i | i | i | i | i
COc1cc(-c2ccc3ncnc(N(C)Cc4csc(C)n4)c3c2)cc(OC)c1OC | nt | i | nt | i | nt | nt
COc1ccc(Cl)cc1NC(=O)Nc1cccc([N+](=O)[O-])c1C | i | i | i | 13µM | i | i
COc1ccc(C(=O)N/C(=C\c2ccc3c(c2)OCO3)C(=O)Nc2cccc(C(=O)O)c2)cc1 | i | i | i | i | i | ?
COc1ccc(N2CCN(S(=O)(=O)c3ccc4oc(=O)c5ncn(C)c5c4c3)CC2)cc1 | i | i | i | i | i | nt
Cc1cccc(C(=O)Nc2ccccc2C(=O)OCC(=O)Nc2ccc(C#N)cc2)c1 | 15.8µM | i | i | i | i | ?
O=C(Nc1nc2ccc(SC(F)F)cc2s1)c1ccc(NS(=O)(=O)c2ccc(F)c(F)c2)cc1 | 31.6µM | i | i | ? | i | ?
CS(=O)(=O)c1ccc2nc(NC(=O)c3ccc(NS(=O)(=O)c4ccc(F)c(F)c4)cc3)sc2c1 | i | i | i | i | i | i
Cc1cccn2cc(-c3cccc(NC(=O)C(C)C)c3)nc12 | i | i | i | i | i | nt
COC(=O)c1cc2sccc2n1CC(=O)Nc1cc(Cl)ccc1OC | i | i | i | ? | i | nt
COc1ccccc1Oc1coc2c(CN3CCOCC3)c(O)ccc2c1=O | nt | i | i | i | i | i
COc1cccc(Oc2coc3c(CN4CCOCC4)c(O)ccc3c2=O)c1 | 20µM | i | i | i | i | i
Cc1ccc(NC(=O)Nc2nnc(SCC(=O)N3CCC(C)CC3)s2)cc1 | i | i | i | nt | i | nt
O=C(O)c1ccc2cccc(Cl)c2c1O | 17.8µM | i | i | i | i | i
SMILES | ClpP mod | A549 viability | Nrf2 ARE act | Nrf2 block | miR-21 reporter | p53 reactivator
COc1ccc(/C=C/C(=O)O)cc1 | i | i | i | i | nt | i
COc1ccc(/C=C/C(=O)C2(O)CCCCC2)cc1 | nt | i | ? | ? | i | 39.8µM
Cc1cc(C(=O)O)c(=O)[nH]c1C | 25.1µM | i | i | i | i | i
O=C(C1CCC(CNS(=O)(=O)c2cccs2)CC1)N1CCN(c2ccc(Cl)cc2)CC1 (stereo not given) | i | ? | i | 8.2µM | ? | i
Cc1ccc(N2CCN(S(=O)(=O)c3ccc4c(c3)CC(=O)N4)CC2)cc1 | nt | i | nt | i | nt | nt
COc1ccc(NC(=O)c2sc3nc4c(cc3c2N)CCCCCC4)cc1Cl | 12.6µM | i | i | ? | i | nt
O=C(C1=NN(c2ccccc2)C2C(=O)N(c3cccc(Cl)c3)C(=O)C12)c1ccccc1 (stereo not given) | 17.8µM | i | i | i | i | i
O=C(C[n+]1cccc2cccc(O)c21)c1ccc(Br)cc1 | i | nt | nt | nt | nt | nt
Cc1nnc(SCC(=O)N2c3ccccc3C(C)(c3ccccc3)CC2(C)C)s1 (stereo not given) | i | ? | i | 23.1µM | i | i
Cc1ccc(C2(C)CC(C)(C)N(C(=O)CSc3nnc(C)s3)c3ccccc32)cc1 (stereo not given) | i | ? | i | 20.6µM | i | i
CCCCC(=O)N1c2ccccc2C(C)(c2ccccc2)CC1(C)C (stereo not given) | i | i | i | i | i | nt
Cc1c(C#N)c2ncn(CCCN(C)C)c(=O)c2n1-c1ccccc1 | i | i | i | i | i | i
Cc1c(C#N)c2ncn(Cc3ccccn3)c(=O)c2n1-c1ccccc1 | 28.2µM | i | i | i | i | i
CCOC(=O)c1cnn2c(C)cc(-c3ccc(F)cc3)nc12 | 28.2µM | i | i | nt | i | ?
CC(Sc1nnnn1-c1ccc(Cl)cc1)C(=O)NCC(=O)Nc1ccc(F)c(F)c1F (stereo not given) | 25.1µM | i | i | i | i | i
Cc1ccc(N2CC(NC(=O)c3ccc(S(=O)(=O)N(C)C)cc3)CC2=O)cc1C (stereo not given) | i | i | i | nt | i | nt
CCOC(=O)c1c(-c2ccccc2)csc1NC(=O)/C(C#N)=C/c1ccc(O)c(OC)c1 | 28.2µM | i | i | i | i | i
CCOC(=O)c1c(-c2ccccc2)csc1NC(=O)/C(C#N)=C/c1ccc(OC)c(OC)c1 | i | i | i | i | i | i
COc1cc(OC)c2c(C)c(Cl)c(=O)oc2c1 | 2.82µM | i | i | i | i | i
COc1ccc(-c2csc3ncnc(Nc4cc(OC)cc(OC)c4)c23)cc1 | ? | i | i | nt | i | nt
COc1ccc(-c2csc3ncnc(Nc4ccc(OC)cc4OC)c23)cc1 | 39.8µM | i | i | nt | i | nt
COc1ccccc1Nc1ncnc2scc(-c3ccc(F)cc3)c12 | 28.2µM | i | i | nt | i | nt
COC(=O)c1nc(Nc2cc(F)cc(F)c2)nc(NC2CCCC2)n1 | nt | i | nt | i | nt | nt
C=CCNc1nc2c(c(=O)n(C)c(=O)n2C)n1CCCCCC | i | i | i | 4.11µM | i | i
C=CCNc1nc2c(c(=O)n(C)c(=O)n2C)n1Cc1ccc(F)cc1 | i | i | i | 8.2µM | i | i
CCOC(=O)c1ccc(N2CCN(c3ccc(F)cc3)CC2)c(NC(=O)Nc2ccc(CC)cc2)c1 | i | i | i | nt | i | nt
CCOC(=O)c1ccc(N2CCN(c3ccc(F)cc3)CC2)c(NC(=O)Nc2cccc(OC)c2)c1 | 28.2µM | i | i | i | i | i
